Test system: serine palmitoyltransferase (SPT) in SPTLC3 overexpressing HEK293 cells
Test: In vitro SPT activity with various acyl-CoA substrates (Example 1, FIG. 3)
Assay type: biochemical
Details: acyl-CoA 50 μM; activity with palmitoyl-CoA defined as 100%
Method: FIG. 3 In vitro SPT activity with various acyl-CoA substrates (C12-CoA, C14-CoA, C16-CoA and C18:1-CoA) in control, SPTLC1, SPTLC2 and SPTLC3 overexpressing HEK293 cells. […] (For comparison the activity with palmitoyl-CoA is defined as 100%.)
All acyl-CoAs were used at the same concentration (50 μM).

For `CCCCCCCCCCCCCC(=O)SCCNC(=O)CCNC(=O)[C@H](O)C(C)(C)COP(=O)(O)OP(=O)(O)OC[C@H]1O[C@@H](n2cnc3c(N)ncnc32)[C@H](O)[C@@H]1OP(=O)(O)O` [myristoyl-CoA], the “SPT activity with the acyl-CoA substrate in SPTLC3 overexpressing cells compared with control, SPTLC1 and SPTLC2 cells” value was “significantly higher activity”.

Source: patent US20130011870A1, “Method For Assaying Diseases Characterized By Dyslipidemia” (priority 2010, published 2013)
